In PMC3662788, “The Catalytic Roles of P185 and T188 and Substrate-Binding Loop Flexibility in 3α-Hydroxysteroid Dehydrogenase/Carbonyl Reductase from Comamonas testosteroni” (PLoS ONE, 2013):

Substrate: NC(=O)c1ccc[n+]([C@@H]2O[C@H](COP(=O)([O-])OP(=O)(O)OC[C@H]3O[C@@H](n4cnc5c(N)ncnc54)[C@H](O)[C@@H]3O)[C@@H](O)[C@H]2O)c1
Assay: purified protein, by the assay type
Details: other: P185G, 0.1 M Caps pH 10.5, 25°C

B1: P185G mutant 3α-HSD/CR (Comamonas testosteroni; P185G) (protein)
chain: MSIIVISGCATGIGAATRKVLEAAGHQIVGIDIRDAEVIADLSTAEGRKQAIADVLAKCSKGMDGLVLCAGLGPQTKVLGNVVSVNYFGATELMDAFLPALKKGHQPAAVVISSVASAHLAFDKNPLALALEAGEEAKARAIVEHAGEQGGNLAYAGSKNALTVAVRKRAAAWGEAGVRLNTIAGGATETPLLQAGLQDPRYGESIAKFVPPMGRRAEPSEMASVIAFLMSPAASYVHGAQIVIDGGIDAVMRPTQF
Protein B1 has a Km of 211 ± 66 µM.
